Results taken from patent US20240368664A1, “LIVE YEAST BIOSENSORS AND METHODS OF USE THEREOF” (priority 2021, published 2024).

Target: T1, Saccharomyces cerevisiae pheromone GPCR ScSte2 (Saccharomyces cerevisiae), D6VTK4
T1 chain: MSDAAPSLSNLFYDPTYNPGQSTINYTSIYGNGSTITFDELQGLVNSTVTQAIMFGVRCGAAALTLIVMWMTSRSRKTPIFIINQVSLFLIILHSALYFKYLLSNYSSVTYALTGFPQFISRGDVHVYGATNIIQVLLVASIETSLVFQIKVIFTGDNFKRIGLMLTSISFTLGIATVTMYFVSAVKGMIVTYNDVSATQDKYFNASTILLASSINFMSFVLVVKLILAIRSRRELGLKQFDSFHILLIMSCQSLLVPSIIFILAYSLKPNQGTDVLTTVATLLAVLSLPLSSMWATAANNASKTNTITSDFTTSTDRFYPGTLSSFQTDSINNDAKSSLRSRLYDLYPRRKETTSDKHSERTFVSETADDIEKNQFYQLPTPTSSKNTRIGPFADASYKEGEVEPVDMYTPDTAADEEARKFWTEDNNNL
Experiment: cell-based or functional assay

WHWAQLKPGQPMY (modifications not checked) [ScPep4A]
LogEC50: -5.4 log M
